Values after ≈ are worked out from the molar mass of the structure shown. Read-outs that look alike come from different tables or passages of the source.
Test system: E. cloacae (XDR CI 4172)
Assay type: cell-based, Enterobacter cloacae
Conditions: Mueller-Hinton broth, 10^6 CFU/ml, 0.1% BSA, 37°C, 24 h, median of at least 3 experiments
Protocol: Antimicrobial assay was performed as described previously ([Panteleev et al., 2017b]). Briefly, mid-log phase bacterial test cultures were diluted with the 2× Mueller-Hinton broth (MH, Sigma) supplemented with 1.8% NaCl or without it so that to reach a final cell concentration of 10^6 CFU/ml. 50 μl aliquots of the obtained bacterial suspension were added to 50 μl of the peptide solutions serially diluted with 0.1% water solution of bovine serum albumin (BSA) in 96-well flat-bottom polystyrene microplates (Eppendorf #0030730011). After incubation at 37°C and 900 rpm for 24 h the minimum inhibitory concentrations (MIC) were determined as the lowest peptide concentrations that prevented growth of a test microorganism observed as visible turbidity. The results were expressed as the median values determined on the basis of at least three independent experiments performed in triplicate.

CC[C@H](C)[C@H](NC(=O)CN)C(=O)NCC(=O)N[C@@H](C)C(=O)N[C@H](C(=O)N[C@@H](CC(C)C)C(=O)N[C@@H](CCCCN)C(=O)N[C@H](C(=O)N[C@@H](CC(C)C)C(=O)N[C@H](C(=O)N[C@H](C(=O)NCC(=O)N[C@@H](CC(C)C)C(=O)N1CCC[C@H]1C(=O)N[C@@H](C)C(=O)N[C@@H](CC(C)C)C(=O)N[C@H](C(=O)N[C@@H](CO)C(=O)N[C@@H](Cc1c[nH]c2ccccc12)C(=O)N[C@H](C(=O)N[C@@H](CCCCN)C(=O)N[C@@H](CCCNC(=N)N)C(=O)N[C@@H](CCCCN)C(=O)N[C@@H](CCCNC(=N)N)C(=O)N[C@@H](CCC(N)=O)C(=O)N[C@@H](CCC(N)=O)C(N)=O)[C@@H](C)CC)[C@@H](C)CC)[C@@H](C)O)[C@@H](C)O)C(C)C)C(C)C [Melittin, reference compound]
Minimum inhibitory concentration (0.9% NaCl): 8 µM (≈ 22.8 µg/mL)
Minimum inhibitory concentration (Without NaCl): 2 µM (≈ 5.69 µg/mL)

Reference: publication PMC6284057, “Combined Antibacterial Effects of Goat Cathelicidins With Different Mechanisms of Action” (Frontiers in Microbiology, 2018)
